Laboratory results from article PMC8560763, “Roles of metal ions in the selective inhibition of oncogenic variants of isocitrate dehydrogenase 1” (Communications Biology, 2021).
Several values for one entry are separate records, joined by “and”; a condition that tells them apart may be missing. Equal entries are not always repeated. Entries after “also recorded” stand apart in the source; their conditions may differ.

Amino acid sequences for entries named in this document (tags omitted). Residues count along the entry.
UniProt O75874, 2-414: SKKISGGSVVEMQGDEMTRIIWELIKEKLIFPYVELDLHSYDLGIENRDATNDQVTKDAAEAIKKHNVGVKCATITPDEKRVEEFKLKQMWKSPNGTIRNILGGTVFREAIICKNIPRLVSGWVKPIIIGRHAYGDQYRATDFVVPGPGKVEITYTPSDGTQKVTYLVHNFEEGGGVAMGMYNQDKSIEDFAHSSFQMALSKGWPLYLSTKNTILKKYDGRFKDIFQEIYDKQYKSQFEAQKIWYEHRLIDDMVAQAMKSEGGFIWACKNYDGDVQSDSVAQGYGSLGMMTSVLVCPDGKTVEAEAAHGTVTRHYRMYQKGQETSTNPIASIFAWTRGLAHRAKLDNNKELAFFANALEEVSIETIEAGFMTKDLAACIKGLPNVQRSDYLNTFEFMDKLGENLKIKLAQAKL

How the values were obtained:
wt IDH1 [1] = target: T1, wt IDH1 (Homo sapiens, UniProt O75874); test: Absorbance assay (NADPH, 340 nm): kinetics of oxidative reaction (isocitrate to 2OG) by wt IDH1; format: biochemical
T1 construct: made in house; host or cells: Escherichia coli BL21(DE3) pLyS
Protocol: All experiments were performed in (at least) triplicate.
KM values were determined by varying concentrations of the substrate/cofactor under investigation while maintaining the concentrations of other components using standard conditions. […] Graphs were fitted using GraphPad Prism to obtain kinetic parameters.

wt IDH1 [2] = target: T1, wt IDH1; test: Differential scanning fluorimetry (DSF) thermal shift, wt IDH1; format: binding
Protocol: Thermal shift experiments were carried out using Sypro Orange dye and a CFX96 Touch^TM Real-Time PCR Detection System (Bio-Rad)[69]. […] The standard assay buffer contains 50 mM Tris-HCl at pH 7.5. Various concentrations of substrates were mixed with IDH1 for thermal stabilisation studies. The samples in triplicates were subjected to temperature increases from 20 to 95 °C at 0.2 °C min^−1. Bio-Rad CFX Manager was used to determine the melting temperature, Tm.

wt IDH1 [3] = target: T1, wt IDH1; test: 1H NMR reaction monitoring, wt IDH1; format: biochemical; conditions: 1H NMR (700 MHz), NADP+, 10 mM MgCl2

For `O=C(O)CC(C(=O)O)C(O)C(=O)O` (racemic) [DL-isocitrate], the Velocity (wt IDH1 [1]; Fig. S2a, [Isocitrate] 18.75 μM) was 0.08475 µM/s and 0.05817 µM/s and 0.04396 µM/s, the Velocity (wt IDH1 [1]; Fig. S2a, [Isocitrate] 37.5 μM) was 0.1403 µM/s and 0.1279 µM/s and 0.1324 µM/s and the Velocity (wt IDH1 [1]; Fig. S2a, [Isocitrate] 75 μM) was 0.1758 µM/s and 0.1682 µM/s and 0.1563 µM/s. The Velocity (wt IDH1 [1]; Fig. S2a, [Isocitrate] 150 μM) was 0.1816 µM/s and 0.1737 µM/s and 0.1677 µM/s, the Velocity (wt IDH1 [1]; Fig. S2a, [Isocitrate] 300 μM) was 0.2122 µM/s and 0.1769 µM/s and 0.169 µM/s and the Velocity (wt IDH1 [1]; Fig. S2a, [Isocitrate] 600 μM) was 0.22 µM/s and 0.2077 µM/s and 0.1669 µM/s. For the same compound, the Velocity (wt IDH1 [1]; Fig. S2a, [Isocitrate] 1200 μM) was 0.2093 µM/s and 0.1956 µM/s and 0.1853 µM/s, the Velocity (wt IDH1 [1]; Fig. S2a, [Isocitrate] 2400 μM) was 0.2164 µM/s and 0.2369 µM/s and 0.2 µM/s and the Velocity (wt IDH1 [1]; Fig. S3a, MnCl2 as metal, [Isocitrate] 2.34375 μM) was 0.008686 µM/s and 0.01106 µM/s and 0.008949 µM/s. For the same compound, the Velocity (wt IDH1 [1]; Fig. S3a, MnCl2 as metal, [Isocitrate] 18.75 μM) was 0.1113 µM/s and 0.09186 µM/s and 0.08002 µM/s, the Velocity (wt IDH1 [1]; Fig. S3a, MnCl2 as metal, [Isocitrate] 37.5 μM) was 0.2006 µM/s and 0.1816 µM/s and 0.1766 µM/s and the Velocity (wt IDH1 [1]; Fig. S3a, MnCl2 as metal, [Isocitrate] 75 μM) was 0.2687 µM/s and 0.239 µM/s and 0.2364 µM/s. The Velocity (wt IDH1 [1]; Fig. S3a, MnCl2 as metal, [Isocitrate] 150 μM) was 0.2651 µM/s and 0.2456 µM/s, the Velocity (wt IDH1 [1]; Fig. S3a, MnCl2 as metal, [Isocitrate] 300 μM) was 0.2914 µM/s and 0.2874 µM/s and 0.2895 µM/s and the Velocity (wt IDH1 [1]; Fig. S3a, MnCl2 as metal, [Isocitrate] 600 μM) was 0.2808 µM/s and 0.2824 µM/s and 0.2974 µM/s. The Velocity (wt IDH1 [1]; Fig. S3a, MnCl2 as metal, [Isocitrate] 1200 μM) was 0.324 µM/s and 0.3009 µM/s and 0.2719 µM/s, the Velocity (wt IDH1 [1]; Fig. S3a, MnCl2 as metal, [Isocitrate] 2400 μM) was 0.3338 µM/s and 0.2937 µM/s and 0.2569 µM/s and the Vmax (wt IDH1 [1]; wt IDH1, oxidative reaction with Mg^2+ (10 mM MgCl2)) was 216 ± 8 nM/s. For the same compound, the Vmax (wt IDH1 [1]; wt IDH1, oxidative reaction with Mn^2+ (10 mM MnCl2)) was 313 ± 8 nM/s, the “Δ in Tm” value (wt IDH1 [2]; Fig. 2f, wt IDH1, 0.25 mM DL-isocitrate + 10 mM MgCl2, replicates) was 13.3 °C and the “Δ in Tm” value (wt IDH1 [2]; Fig. 2f, wt IDH1, 0.5 mM DL-isocitrate + 10 mM MgCl2, replicates) was 15.1 °C and 14.5 °C and 14.3 °C. The “Δ in Tm” value (wt IDH1 [2]; Fig. 2f, wt IDH1, 1 mM DL-isocitrate + 10 mM MgCl2, replicates) was 16.1 °C and 15.9 °C (2×), the “Δ in Tm” value (wt IDH1 [2]; Fig. 2f, wt IDH1, 2 mM DL-isocitrate + 10 mM MgCl2, replicates) was 17.7 °C and the “Δ in Tm” value (wt IDH1 [2]; Fig. 2f, wt IDH1, 4 mM DL-isocitrate + 10 mM MgCl2, replicates) was 19.3 °C (2×) and 19.1 °C. For the same compound, the “Δ in Tm” value (wt IDH1 [2]; Fig. 2f, wt IDH1, […] DL-isocitrate + 10 mM MgCl2, replicates) was 12.1 °C, the “Δ in Tm” value (wt IDH1 [2]; Fig. 2d, wt IDH1, 0.25 mM DL-isocitrate, replicates) was 6.8 °C (2×) and 6.9 °C and the “Δ in Tm” value (wt IDH1 [2]; Fig. 2d, wt IDH1, 0.5 mM DL-isocitrate, replicates) was 8.6 °C and 8.8 °C and 8.7 °C. The “Δ in Tm” value (wt IDH1 [2]; Fig. 2d, wt IDH1, 1 mM DL-isocitrate, replicates) was 11.2 °C and 11.4 °C and 11.3 °C, the “Δ in Tm” value (wt IDH1 [2]; Fig. 2d, wt IDH1, 2 mM DL-isocitrate, replicates) was 13.0 °C and 13.2 °C (2×) and the “Δ in Tm” value (wt IDH1 [2]; Fig. 2d, wt IDH1, 4 mM DL-isocitrate, replicates) was 16.4 °C and 15.4 °C and 15.9 °C. For the same compound, the thermal stabilisation (wt IDH1 [2]; wt IDH1, 0.125–4 mM isocitrate alone) was 4.6–16 °C, the thermal stabilisation (wt IDH1 [2]; wt IDH1, 0.125–4 mM isocitrate, with Mg^2+ (10 mM)) was 12–19 °C and the “thermal stabilisation by cosubstrates” value (wt IDH1 [2]; wt IDH1, 0.125—4 mM, 50 mM Tris-HCl, pH 7.5) was “stabilise”. The “conversion by wt IDH1” value (wt IDH1 [3]) was 50% converted.

With `O=C(O)C[C@H](C(=O)O)[C@@H](O)C(=O)O` [D-isocitrate] the “conversion by wt IDH1” value (wt IDH1 [3]) was “selectively converted to 2OG; also recorded: fully converted”.
